Experimental data published in patent US5663180A (dated 1997).

Tested on: RAT PAW EDEMA
Assay: Rat Carrageenan Foot Pad Edema Test
Settings: po, 3 h, read-out: RAT PAW EDEMA % Inhibition

CSc1ccc(C2=C(c3ccc(S(C)(=O)=O)cc3)CCC2)cc1
inhibition in vivo at 10 mg/kg: 28%
